The values below come from ChEMBL document CHEMBL5550209, “Hit-to-Lead Optimization of Heterocyclic Carbonyloxycarboximidamides as Selective Antagonists at Human Adenosine A3 Receptor” (J Med Chem, 2024).

The nature of series [1]: in vitro. As to conditions: human, plasma.
The nature of series [2]: in vitro. To be noted: human, Caco-2.
Series [3] can be described thus: in vitro. As to conditions: human, Caco-2. This is another data set of the same source.
Series [4] is described as follows: in vitro. To be noted: human, liver microsomes.

Compound `Cc1onc(-c2c(Cl)cccc2Cl)c1C(=O)ON=C(N)c1ccc(Br)cn1` displayed a fraction unbound at 24 h, 10 µM in series [1] of 0.01. In series [2], the Papp B→A was 0.6 ×10⁻⁶ cm/s. Further, the Papp A→B in series [3] stood at 7.2 ×10⁻⁶ cm/s.

Take `Cc1nc(C(=N)NOC(=O)c2c(-c3c(Cl)cccc3Cl)noc2C)cs1`: in series [4], the microsomal CLint at 1 h, 0.1 µM worked out at 287 µL/min/mg.
